# AlphaSeq binding of Ab-14 light chain variants to a spike HR2 peptide

The measurements come from Engelhart et al. 2022 (doi:10.1038/s41597-022-01779-4) through the FLAb antibody collection.

All variants were tested on one target, the spike HR2 peptide PDVDLGDISGINAS (SARS-CoV-2).

Each scFv is VH, a 15-residue (Gly4Ser)3 linker, VL, as in the parent Ab-14, and differs from it in the CDRs of the light chain only.
VH: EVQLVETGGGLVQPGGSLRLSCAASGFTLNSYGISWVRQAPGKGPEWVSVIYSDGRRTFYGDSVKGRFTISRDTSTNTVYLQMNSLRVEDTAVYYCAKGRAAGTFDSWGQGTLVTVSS
VL: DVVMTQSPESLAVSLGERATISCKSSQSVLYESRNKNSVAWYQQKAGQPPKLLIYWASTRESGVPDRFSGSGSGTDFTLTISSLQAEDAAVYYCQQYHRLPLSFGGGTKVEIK

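Phage display of a naive human antibody library on the peptide gave the parent. Library AAYL50 holds single substitutions and randomly drawn double and triple substitutions in the CDRs. AlphaSeq pools MATa yeast showing the antibodies with MATalpha yeast showing the peptide. Mating (16 h, 30 °C) was followed by selection of diploids and sequencing of their barcodes. The ratio of observed to expected reads was calibrated, replicate by replicate, on BCL2-family standards whose Kd was known from biolayer interferometry. Each pool was mated in three replicate cultures.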

The parent's light chain CDRs are KSSQSVLYESRNKNSVA, WASTRES, QQYHRLPLS; each variant's own CDRs replace them letter for letter. The Kd shown is the geometric mean over detected replicates; a lower Kd is a better binder. An entry "no signal" has no value in the source: the pair was not observed among the diploids in any replicate. This suggests poor binding but is not conclusive. Entries are sorted by rising average, undetected variants last. Background: pairings of library AAYL50 with three empty control strains gave a value in 18% of cases (median 15 µM, 5th percentile 970 nM). Values in that range, when seen in few replicates, are hard to tell from nonspecific mating. For reference, the parent read 4.4 nM as the reference entry and 48 nM as a member of this library.

apparent Kd | replicates with signal | CDR-L1 | CDR-L2 | CDR-L3
1.1 nM | 3/3 | KSSQSVLYESRNKNSVA | EASTRES | QQYHRHPLS
2.2 nM | 3/3 | KSSQSVLYESETKNSVA | WANTRES | QQYHRLPLS
5.6 nM | 3/3 | KSSMSPLYESANKNSVA | WASTRES | QQYHRLPLS
8.3 nM | 3/3 | KSSQSVLYESRAKNSVA | WATTRES | QQYHRLPLS
8.5 nM | 3/3 | KQSQSDLYQSRNKNSVA | WASTRES | QQYHRLPLS
11 nM | 3/3 | KSSQSVLYESANANSVA | WASTRES | QQYHRLPLH
12 nM | 3/3 | KSSQSVLYESRNKHSVA | WASTRES | QQRHLLPLS
28 nM | 3/3 | KSSQSVLCESRNKNSVA | WASTRES | QQYHRYPLF
36 nM | 3/3 | KTSQSVLYESRTKNSVA | WASTRES | QQYHGLPLS
51 nM | 3/3 | KSSQSVLYESRNKNSVA | WASVRES | QQYLRLPLE
64 nM | 3/3 | FSSQSVLDESRNKNSVA | WASTRES | IQYHRLPLS
76 nM | 3/3 | KSSQSVLYESRNANSVA | WASTREM | QQYHRLPLP
76 nM | 1/3 | KSSQQLLYESRNKNSVA | WASTRIS | QQYHRLPLS
77 nM | 3/3 | KSSQSVLYESRNKNSVA | FASTRES | QQYHRLPLC
120 nM | 3/3 | KVSQSVLYESRNKNSIA | WASTRES | QQYHRLPES
170 nM | 3/3 | KSSQGVLYESYNKNSMA | WASTRES | QQYHRLPLS
180 nM | 2/3 | KSSQSVLYKSRNENSYA | WASTRES | QQYHRLPLS
180 nM | 3/3 | KSSQSVLYESRNKNSVA | WASTRES | QQYKRLKLF
180 nM | 3/3 | KYSQLVLYESRNKNQVA | WASTRES | QQYHRLPLS
190 nM | 3/3 | KSSQRVRYESRNKNSVA | WASTRES | QQYHRLWLS
270 nM | 3/3 | KDDQSVLYEIRNKNSVA | WASTRES | QQYHRLPLS
290 nM | 3/3 | KSQQSVLYWSRNKNSVA | WASTRES | QQYHRLPLQ
350 nM | 3/3 | KSSQSKLIESRSKNSVA | WASTRES | QQYHRLPLS
500 nM | 3/3 | KSSQSVLYTSRFKNSVA | WASTRES | QQYHILPLS
730 nM | 3/3 | KSSQLVLYESRNKNSVA | WASWRES | QQYHRLPLS
770 nM | 1/3 | KSSQSVLPESRNKNSVA | WASTRES | GQYHRLPLS
800 nM | 3/3 | KSSQSVLYESRNWNSVA | WASTRES | QAYHRLPYS
2.4 µM | 1/3 | KSSQSVLYESRNVNSVA | WVSTEES | QQYHRLPLS
3.8 µM | 3/3 | KSSQSVAYESRNKNSVA | WASTKES | QQYHRNPLS
5.0 µM | 3/3 | KSSQSVLYESRNMCSVA | WASTRHS | QQYHRLPLS
5.7 µM | 1/3 | KSSQSVLYESRGKNSVQ | WASTRES | QWYHRLPLS
5.8 µM | 1/3 | KSSQSVLYESRNKRSVA | WASTRES | QQYHRWPLS
6.4 µM | 2/3 | YSYQSVLYESRNKNSVA | WASTRES | QQYHRLRLS
6.6 µM | 3/3 | KSSQSDLYTSRNKNSVA | WASTSES | QQYHRLPLS
8.1 µM | 1/3 | KSSQSVLIESRNKNSLI | WASTRES | QQYHRLPLS
9.0 µM | 1/3 | KNSQSVLYESRNHNSVA | WASTRES | QQYHCLPLS
9.1 µM | 2/3 | KSSQSYLYESRVKASVA | WASTRES | QQYHRLPLS
9.8 µM | 2/3 | KSSQSVIYESRNKRSVA | WASTRES | QQYHRLPLL
13 µM | 2/3 | KMSQSVLYESRNKKSHA | WASTRES | QQYHRLPLS
14 µM | 1/3 | KSSQSVLEESRNKNSVA | KASYRES | QQYHRLPLS
17 µM | 1/3 | KSSQSVLYESRNKNSEA | WASTRES | VQYHRLNLS
18 µM | 2/3 | KSSQSVMYESRNKNSVA | WASTRES | QVYHRLGLS
19 µM | 1/3 | KSSQSVLYESCNKNSVT | WASTFES | QQYHRLPLS
21 µM | 3/3 | KSSQSVLYASRHKNSYA | WASTRES | QQYHRLPLS
35 µM | 2/3 | KSSQSVLWESRNKNEVA | WASTRES | QQYHRLPLS
48 µM | 2/3 | KSSASVLYESRNKNSVA | WASTRES | QQVHRLPLS
87 µM | 1/3 | KSSQSVLYETRNKNSVA | KASTRES | QQYHRLLLS
150 µM | 2/3 | KSSQSVLYESRVKNSVA | WASTREM | QQYHRLPLL
no signal | 0/3 | KSSQSTLYESRNKQSVV | WASTRES | QQYHRLPLS
no signal | 0/3 | HSEQSVLYESRNKNSVA | WASTRES | QQPHRLPLS
no signal | 0/3 | KSSQSVLYESRNKNSVA | WASTRES | QQNHRLALY
no signal | 0/3 | KSSQSVLSESRNKNSVA | WASTEES | QQYHRLPLS
no signal | 0/3 | KSSQSVLYESRNKNSVA | WISTRES | QQYHRRPLS
no signal | 0/3 | KSSQSVLYESRNKNSVT | WASTRES | QGYHRLPLK
no signal | 0/3 | KSSQSVLYESRNKNNVA | WASTRES | MQYHRLPAS
no signal | 0/3 | AVSQSVFYESRNKNSVA | WASTRES | QQYHRLPLS
no signal | 0/3 | KSSQSVLYESRNKNHVA | WAPTRES | QQYHRYPLS
no signal | 0/3 | KSSQSVLYESRNKPSVA | WAETRES | QQYHRPPLS
no signal | 0/3 | KSSQSVLYESRNPNSFA | WASTRWS | QQYHRLPLS
no signal | 0/3 | KSSQFVLYESRNKNSVA | WASTRIS | QYYHRLPLS
no signal | 0/3 | KSSQSVLYESRNKNSVA | WASTRES | AQYHRLTLK
no signal | 0/3 | KSSQSVLYRSRNKNSLA | WASTRES | QQYHRLPLS
no signal | 0/3 | KSSQSVLDESRNKNSVT | WASTRES | QQYHRGPLS
no signal | 0/3 | KSSQSVLYEPRNKNSSA | WASTRES | QQYHRLPLS
no signal | 0/3 | KSSTSVLYESRNKNSVC | WASTRES | QQYHRLPPS
no signal | 0/3 | KSSQSVLYESRNKNSVA | WASTRES | QQEVRLRLS
no signal | 0/3 | KSSQSVLYESRNKESVA | WASTRES | QKYHYLPLS
no signal | 0/3 | KSSQSVQYESRNKNSVA | WASTRES | QQYHRLPAQ
no signal | 0/3 | KSSQSVLYERRNKNGVA | WASTRES | QQYHRLPLY
no signal | 0/3 | KSSQSVRYESRCKNSVA | WASTRES | CQYHRLPLS

Top 7 of the variants detected in all replicates, tightest first:

| CDR-L1 | CDR-L2 | CDR-L3 | apparent Kd | replicates with signal |
|---|---|---|---|---|
| KSSQSVLYESRNKNSVA | EASTRES | QQYHRHPLS | 1.1 nM | 3/3 |
| KSSQSVLYESETKNSVA | WANTRES | QQYHRLPLS | 2.2 nM | 3/3 |
| KSSMSPLYESANKNSVA | WASTRES | QQYHRLPLS | 5.6 nM | 3/3 |
| KSSQSVLYESRAKNSVA | WATTRES | QQYHRLPLS | 8.3 nM | 3/3 |
| KQSQSDLYQSRNKNSVA | WASTRES | QQYHRLPLS | 8.5 nM | 3/3 |
| KSSQSVLYESANANSVA | WASTRES | QQYHRLPLH | 11 nM | 3/3 |
| KSSQSVLYESRNKHSVA | WASTRES | QQRHLLPLS | 12 nM | 3/3 |